Measured values: ChEMBL document CHEMBL1121573, “2-(Aminomethyl)phenols, a new class of saluretic agents. 1. Effects of nuclear substitution” (J Med Chem, 1980)

System: Canis familiaris
Experiment: Oral diuretic activity was evaluated by measuring Cl- excretion in dog at 1 mg/kg g after ip administration (0-6 hr)
Type: ADME, organism-based, Canis lupus familiaris, Urine
Set-up: dose 1 mg/kg, route intraperitoneal
Conditions: in vivo

NS(=O)(=O)c1cc(C(=O)O)c(NCc2ccco2)cc1Cl [FUROSEMIDE]
Diuretic activity: 16.4
